PubChem BioAssay AID588852 (The Scripps Research Institute Molecular Screening Center, 2011)
This is a selection; strong and weak results do not stand in their true shares. Some salts or complexes appear as unconnected parts, following the source record. Active and inactive are the calls of the source.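 Rule for the calls: active = percent inhibition above its own plate's cutoff, namely the mean of that plate's compound wells plus 3 SD; inactive = the rest.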

Protein sequences, listed by entry. Tags and fused reporters are not part of them.
UniProt P11229, whole entry: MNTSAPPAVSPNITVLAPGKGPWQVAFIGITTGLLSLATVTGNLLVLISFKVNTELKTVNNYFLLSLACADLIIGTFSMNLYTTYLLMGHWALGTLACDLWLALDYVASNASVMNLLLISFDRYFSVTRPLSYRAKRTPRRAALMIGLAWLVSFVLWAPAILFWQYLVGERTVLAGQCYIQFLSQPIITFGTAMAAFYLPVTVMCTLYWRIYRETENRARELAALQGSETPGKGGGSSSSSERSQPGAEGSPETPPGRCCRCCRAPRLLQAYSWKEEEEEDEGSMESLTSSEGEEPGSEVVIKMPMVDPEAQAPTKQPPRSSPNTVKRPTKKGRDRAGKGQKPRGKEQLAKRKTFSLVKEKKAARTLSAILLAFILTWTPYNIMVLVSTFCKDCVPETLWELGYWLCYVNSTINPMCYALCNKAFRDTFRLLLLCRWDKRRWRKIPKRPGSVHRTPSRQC

target: Muscarinic acetylcholine receptor M1 (Homo sapiens) (UniProt P11229); assay: CHRM1 blockers of acetylcholine calcium response – CHO-K1 cells, Fluo-8 calcium fluorescence, 1536-well, primary screen (AID 588852); details: CHO-K1 hM1, Fluo-8 calcium fluorescence, ACh EC80 antagonist; at 3 µM; stronger effect = higher value;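 note: peak over basal fluorescence ratio during 140 s after agonist addition; 0% = ACh EC80 plus DMSO and 100% = DMSO alone without agonist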

| Compound | inhibition |
| --- | --- |
| CP(=O)(OCCOc1ccccc1)OCCOc1ccccc1 | inactive: -1.21% |
| CCCCCCCCCCCCCCCC1C[N+](C)(C)CCOP(C)(=O)O1 (configuration not stated) | active: 64.9% |
| CP(=O)(Nc1ccc(Cl)cc1Cl)Oc1ccccc1 (configuration not stated) | inactive: -15.6% |
| Cc1cc(C)cc(OP(C)(=O)Nc2cccc(C(F)(F)F)c2)c1 (configuration not stated) | inactive: -0.11% |
| O=C1C(O)=C([N+](=O)[O-])C(=O)C(O)=C1[N+](=O)[O-] | inactive: 0.65% |
| COc1ccc(OP(C)(=O)Nc2ccccc2Br)cc1 (configuration not stated) | inactive: -9.09% |
| COc1ccccc1OP(C)(=O)Nc1ccc(C)c(C)c1 (configuration not stated) | inactive: -7.72% |
| O=[N+]([O-])c1cc([N+](=O)[O-])c(Nc2ccccn2)c([N+](=O)[O-])c1 | inactive: -1.6% |
| Cc1c(NP(C)(=O)Oc2ccc(C(C)C)cc2)c(=O)n(-c2ccccc2)n1C (configuration not stated) | inactive: -7.22% |
| CCc1ccc(OP(C)(=O)O)cc1 | inactive: -4.8% |
| COc1ccccc1OP(C)(=O)Nc1ccc(C)cc1C (configuration not stated) | inactive: -12.1% |
| CP(=O)(Nc1ccccn1)Oc1ccccc1 (configuration not stated) | inactive: -23% |
| COc1ccccc1OP(C)(=O)Nc1ccc(Br)cc1 (configuration not stated) | inactive: -8.2% |
| COc1ccc(OP(C)(=O)Nc2ccccn2)cc1 (configuration not stated) | inactive: -5.45% |
| CP(=O)(Nc1ccc(Cl)cc1)Oc1ccc(F)cc1 (configuration not stated) | inactive: -12.2% |
| CC(C)(C)c1ccc(OP(C)(=O)O)cc1 | inactive: -7.34% |
| COc1ccccc1OP(C)(=O)Nc1ccccc1Br (configuration not stated) | inactive: -6.84% |
| CN(C)C(=O)c1c([N+](=O)[O-])cc([N+](=O)[O-])cc1[N+](=O)[O-] | inactive: 0.37% |
| COc1ccc(OP(C)(=O)Nc2ccc(Br)cc2)cc1 (configuration not stated) | inactive: -4.9% |
| CCc1ccc(OP(C)(=O)Nc2cccnc2)cc1 (configuration not stated) | inactive: 7.25% |
| CP(=O)(Oc1ccccc1)N1CCOC1=O (configuration not stated) | inactive: -26.4% |
| COc1ccccc1OP(C)(=O)Nc1c(C)n(C)n(-c2ccccc2)c1=O (configuration not stated) | inactive: -19.8% |
| CP(=O)(OC12CC3CC(CC(C3)C1)C2)OC12CC3CC(CC(C3)C1)C2 | inactive: -1.4% |
| CCOC(=O)c1ccc(NP(C)(=O)Oc2ccc(Cl)cc2)cc1 (configuration not stated) | inactive: -2.86% |
| O=[N+]([O-])c1cc([N+](=O)[O-])c(NCC2CCS(=O)(=O)C2)c([N+](=O)[O-])c1 (configuration not stated) | inactive: -2.18% |

| Compound | inhibition |
| --- | --- |
| Cc1cc(-c2cccc3ccccc23)c(C)cn1.O=[N+]([O-])c1cc([N+](=O)[O-])c(O)c([N+](=O)[O-])c1 | inactive: -9.07% |
| O=[N+]([O-])c1ccc(OP2(=O)COCCO2)cc1 (configuration not stated) | inactive: -17.3% |
| O=C(OC1CN2CCC1CC2)c1cccc(Cl)c1 (configuration not stated) | active: 85.8% |
| Cc1c(C(c2ccc3c(c2)OCO3)c2c(C)n(C)n(-c3ccccc3)c2=O)c(=O)n(-c2ccccc2)n1C.O=[N+]([O-])c1cc([N+](=O)[O-])c(O)c([N+](=O)[O-])c1 | inactive: -10.1% |
| CN(C)C1(CNC(=O)c2ccc(Cl)c(S(N)(=O)=O)c2)CCCCC1 | inactive: -4.38% |
| COc1ccc(OP(C)(=O)Nc2cccc(Br)c2)cc1 (configuration not stated) | inactive: 2.48% |
| COc1ccc(NP(C)(=O)Oc2ccccc2OC)cc1 (configuration not stated) | inactive: 8.5% |
| CP(=O)(Nc1ccc2c(c1)OCCO2)Oc1ccccc1 (configuration not stated) | inactive: 3.54% |
| Cc1ccccc1NP(C)(=O)Nc1ccccc1C | inactive: -21.8% |
| CP(=O)(Nc1ccc(SC(F)(F)F)cc1)Oc1ccc(F)cc1 (configuration not stated) | inactive: 6.78% |
| CCOP(C)(=S)SCC(=O)NC(C)(CC)C(=O)O (configuration not stated) | inactive: -14.8% |
| O=C(OC1CN2CCC1CC2)c1ccc([N+](=O)[O-])cc1 (configuration not stated) | inactive: -8.19% |
| COc1ccc2c(c1O)-c1c(O)c(OC)cc3c1[C@H](C2)[N+](C)(C)CC3.O=[N+]([O-])c1cc([N+](=O)[O-])c([O-])c([N+](=O)[O-])c1[O-] | inactive: -3.31% |
| O=[N+]([O-])c1cc([N+](=O)[O-])c(Nc2ccc(Cl)cc2)c([N+](=O)[O-])c1 | inactive: 27.1% |
| CC(C)c1ccc(OP(C)(=O)Nc2ccc(SC(F)(F)F)cc2)cc1 (configuration not stated) | inactive: 5.89% |
| CP(=O)(Nc1ccccc1F)Oc1ccccc1 (configuration not stated) | inactive: -6.01% |
| O=C(OC1CN2CCC1CC2)c1ccccc1 (configuration not stated) | active: 88.5% |
| Cc1c([N+](=O)[O-])cc([N+](=O)[O-])c(Br)c1[N+](=O)[O-] | inactive: -3.58% |
| CCCCCOc1ccc(NP(C)(=O)Oc2ccc(Cl)cc2Cl)cc1 (configuration not stated) | inactive: -0.59% |
| O=[N+]([O-])c1cc([N+](=O)[O-])c(OC2CCCCC2O)c([N+](=O)[O-])c1 (configuration not stated) | inactive: -5.64% |
| CP(=O)(Nc1ccccc1)Oc1ccc(F)cc1 (configuration not stated) | inactive: -15% |
| COc1ccc(OP(C)(=O)Nc2ccc(SC(F)(F)F)cc2)cc1 (configuration not stated) | inactive: 2.95% |
| CCOC(=O)c1ccc(NP(C)(=O)Oc2ccc(F)cc2)cc1 (configuration not stated) | inactive: 0.1% |
| CC1=NCCc2c1[nH]c1ccccc21.O=[N+]([O-])c1cc([N+](=O)[O-])c(O)c([N+](=O)[O-])c1 | inactive: 5.81% |
| O=C(O)c1cccc(Nc2c([N+](=O)[O-])cc([N+](=O)[O-])cc2[N+](=O)[O-])c1 | inactive: -10.5% |

| Compound | inhibition |
| --- | --- |
| CP(=O)(Nc1cccc(Br)c1)Oc1ccccc1 (configuration not stated) | inactive: -4.84% |
| Cc1cc(C)cc(OP(C)(=O)Nc2ccccn2)c1 (configuration not stated) | inactive: 12.5% |
| Cc1ccc(C)c(NP(C)(=O)Oc2ccccc2)c1 (configuration not stated) | inactive: -30% |
| O=C(OC1CN2CCC1CC2)c1ccc(Cl)cc1 (configuration not stated) | active: 64.2% |
| COc1ccccc1OP(C)(=O)Nc1cccc(Br)c1 (configuration not stated) | inactive: -9.68% |
| COc1cc(C(=O)NCC2(N3CCOCC3)CCCCC2)cc(Cl)c1OC(C)C | inactive: 13.4% |
| Cc1cc(C)cc(OP(C)(=O)Nc2ccc(C)cc2C)c1 (configuration not stated) | inactive: -4.52% |
| CCOC(=O)c1ccc(NP(C)(=O)Oc2cc(C)cc(C)c2)cc1 (configuration not stated) | inactive: 9.04% |
| O=[N+]([O-])c1cc([N+](=O)[O-])c(-c2cnn(-c3ccccc3)c2)c([N+](=O)[O-])c1 | inactive: 15.7% |
| Cc1nc2ccc3ccccc3c2s1.O=[N+]([O-])c1cc([N+](=O)[O-])c(O)c([N+](=O)[O-])c1 | inactive: 9.31% |
| O=[N+]([O-])c1cc([N+](=O)[O-])c(-n2nnc3ccccc32)c([N+](=O)[O-])c1 | inactive: -4.71% |
| CN(Cc1cccnc1)C(=O)COc1ccc(Cl)c(Cl)c1.O=[N+]([O-])c1cc([N+](=O)[O-])c(O)c([N+](=O)[O-])c1 | inactive: -11.3% |
| COc1ccccc1OP(C)(=O)Nc1c(C)cccc1C (configuration not stated) | inactive: -6.12% |
| CP(=O)(Nc1ccc(SC(F)(F)F)cc1)Oc1ccccc1 (configuration not stated) | inactive: 11.7% |
| CCCOc1ccc(NP(C)(=O)Oc2ccc(Cl)cc2)cc1 (configuration not stated) | inactive: -2.27% |
| CCOC(=O)C(CC)C1=NC(C)(C)Cc2ccccc21.O=[N+]([O-])c1cc([N+](=O)[O-])c(O)c([N+](=O)[O-])c1 (configuration not stated) | inactive: -2.21% |
| O=[N+]([O-])c1cc([N+](=O)[O-])c(Nc2nnnn2CCO)c([N+](=O)[O-])c1 | inactive: -6.87% |
| CC1=C2N=C(C=C3N=C(C(C)=C4[N-][C@@](C)([C@@H]5N=C1[C@](C)(CCC(=O)NC[C@@H](C)OP(=O)([O-])O[C@H]1[C@@H](O)[C@@H](n6cnc7cc(C)c(C)cc76)O[C@@H]1CO)[C@H]5CC(N)=O)[C@@](C)(CC(N)=O)[C@@H]4CCC(N)=O)[C@@](C)(CC(N)=O)[C@@H]3CCC(N)=O)C(C)(C)[C@@H]2CCC(N)=O.[C-]#N.[Co+3] | inactive: -20.8% |
| CN(C)C1(CNC(=O)c2ccc(S(C)(=O)=O)cc2)CCCCC1 | inactive: -7.79% |
| CP(=S)(Nn1cnnc1)Oc1ccccc1 (configuration not stated) | inactive: -4.78% |
| COc1ccccc1OP(C)(=O)Nc1ccccc1 (configuration not stated) | inactive: -14.3% |
| CP(=O)(Nc1ccccc1Br)Oc1ccccc1 (configuration not stated) | inactive: -6.76% |
| CCCCOc1ccc(C(=O)NCC2(N3CCCCC3)CCCCC2)cc1OC | inactive: -13.1% |
| CCOP(C)(=S)SCC(=O)NC(C)C(=O)O (configuration not stated) | inactive: 1.91% |
| O=[N+]([O-])c1cc([N+](=O)[O-])c(O)c([N+](=O)[O-])c1.c1ccc(Oc2ccncc2)cc1 | inactive: -4.94% |

| Compound | inhibition |
| --- | --- |
| CCOC(=O)c1ccc(NP(C)(=O)Oc2ccc(OC)cc2)cc1 (configuration not stated) | inactive: 1.99% |
| CP(=O)(Nc1ccccn1)Oc1ccc(Cl)cc1 (configuration not stated) | inactive: -3.74% |
| CP(=O)(Oc1ccccc1)OC(c1ccccc1)C(F)(F)F (configuration not stated) | inactive: 8.88% |
| CP(=O)(Nc1ccc(SC(F)(F)F)cc1)Oc1ccc(Cl)cc1 (configuration not stated) | inactive: 0.65% |
| Cc1cccc(C)c1OP(C)(=O)Nc1ccc(SC(F)(F)F)cc1 (configuration not stated) | inactive: -6.79% |
| Cc1ccc(Nc2c([N+](=O)[O-])cc([N+](=O)[O-])cc2[N+](=O)[O-])cc1 | inactive: -15.5% |
| Cc1cc(C)cc(OP(C)(=O)Nc2ccc(SC(F)(F)F)cc2)c1 (configuration not stated) | inactive: -8.39% |
| CCc1ccc(OP(C)(=O)N2CCN(c3ccc([N+](=O)[O-])cc3)CC2)cc1 (configuration not stated) | inactive: 12.4% |
| CP(=O)(NC(=O)Nc1ccccc1)Oc1ccccc1 (configuration not stated) | inactive: 12.5% |
| O=C(COc1ccccc1)OC1CN2CCC1CC2 (configuration not stated) | active: 55.1% |
| O=C(OC1CN2CCC1CC2)C12CC3CC(CC(C3)C1)C2 (configuration not stated) | active: 99% |
| CCOC(=O)c1ccc(NP(C)(=O)Oc2ccccc2)cc1 (configuration not stated) | inactive: -14.5% |
| Cc1ccc(NP(C)(=O)Oc2ccccc2)c(C)c1 (configuration not stated) | inactive: -31.6% |
| COc1ccccc1OP(C)(=O)Nc1ccc(C)cc1 (configuration not stated) | inactive: -20.7% |
| COc1ccc(OP(C)(=O)Nc2cccc(F)c2)cc1 (configuration not stated) | inactive: 2.57% |
| COc1ccccc1OP(C)(=O)Nc1cc(Cl)ccc1C (configuration not stated) | inactive: 1.51% |
| Cc1cc(C)cc(OP(C)(N)=O)c1 (configuration not stated) | inactive: 3.65% |
| O=[N+]([O-])c1cc([N+](=O)[O-])c(Nc2cccnc2)c([N+](=O)[O-])c1 | inactive: 12.9% |
| COc1cc(C(=O)NCC2(N3CCOCC3)CCCCC2)ccc1OCC(C)C | inactive: -12% |
| Cc1cccc(C)c1OP(C)(N)=O (configuration not stated) | inactive: -0.68% |
| CC(C)(C)c1ccc(OP(C)(=O)Nc2ccc(SC(F)(F)F)cc2)cc1 (configuration not stated) | inactive: 2.82% |
| O=[N+]([O-])c1ccc2c(c1)C=Nc1ccccc1O2 | inactive: 4.48% |
